Reference: KR20140021799A (dated 2014)

Molecular target: T1, CD2 항원 (Jurkat T 세포 / T 림프구 표면) (UniProt P06729 25-351, limits assumed)
T1 construct: whole, on cells; also called CD2-positive Jurkat T 세포
T1 sequence (looked up): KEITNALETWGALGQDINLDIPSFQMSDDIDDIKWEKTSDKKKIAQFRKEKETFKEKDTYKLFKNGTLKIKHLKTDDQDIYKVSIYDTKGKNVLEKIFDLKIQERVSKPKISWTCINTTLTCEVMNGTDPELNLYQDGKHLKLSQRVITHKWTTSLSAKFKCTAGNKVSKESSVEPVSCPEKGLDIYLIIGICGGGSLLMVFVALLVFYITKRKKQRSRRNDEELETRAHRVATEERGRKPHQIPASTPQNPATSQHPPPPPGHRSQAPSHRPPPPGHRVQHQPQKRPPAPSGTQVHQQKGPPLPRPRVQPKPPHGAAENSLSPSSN
Test: dual-binding assay: HER2 antigen coated, COS-7 medium, then Jurkat T cells, calcein AM fluorescence

B1: anti-HER2 scFv-LFA3 (포유류 발현 시스템, COS-7 세포에서 발현) (other)
chain: FSQQIYGVVYGNVTFHVPSNVPLKEVLWKKQKDKVAELENSEFRAFSSFKNRVYLDTVSGSLTIYNLTSSDEDEYEMESPNITDTMKFFLYVLESGGGGSGGSGS[about 120 residues not listed]GGGGSGGGGSGGGSGDIQMTQSPSSLSASVGDRVTITCRASQDVNTAVAWYQQKPGKAPKLLIYSASFLYSGVPSRFSGSRSGTDFTLTISSLQPEDFATYYCQQHYTTPPTFGQGTKVEIKENLYFQGHHHHHH
notes: LFA3 is residues 29-123; Tested as unpurified, unquantified COS-7 culture medium (10x concentrate, neat, dilutions); Glycosylated; also called pCIneo-anti-HER2 scFv-LFA3 product
Does B1 bind?
Result: binds
